How the values were obtained:
M2R [1] = biological target: T1, M2R (Homo sapiens, UniProt P08172); assay: Equilibrium competition binding with [^3H]5 at live CHO-hM2R cells
M2R [2] = biological target: T1, M2R; assay: Equilibrium competition binding with [^3H]64 at CHO-hM2R cell homogenates

By UniProt entry, the sequences of proteins in these tests, tags left out. Where a name states a change or a piece, a line headed by the entry shows the natural chain unless it says otherwise.
UniProt P08172, whole entry: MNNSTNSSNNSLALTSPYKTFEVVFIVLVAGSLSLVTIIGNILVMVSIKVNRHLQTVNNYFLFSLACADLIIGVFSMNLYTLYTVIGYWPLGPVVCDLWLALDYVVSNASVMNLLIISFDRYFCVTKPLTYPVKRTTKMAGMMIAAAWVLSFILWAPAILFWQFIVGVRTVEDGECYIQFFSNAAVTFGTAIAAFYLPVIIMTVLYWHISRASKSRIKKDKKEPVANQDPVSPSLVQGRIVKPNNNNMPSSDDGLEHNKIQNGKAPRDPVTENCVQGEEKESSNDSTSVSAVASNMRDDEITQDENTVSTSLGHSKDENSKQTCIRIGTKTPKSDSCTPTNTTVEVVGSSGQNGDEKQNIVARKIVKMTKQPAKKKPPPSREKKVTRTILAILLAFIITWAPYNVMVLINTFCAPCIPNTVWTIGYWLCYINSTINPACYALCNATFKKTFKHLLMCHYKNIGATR

Ki (M2R [1]): 0.282 µM | Ki (M2R [2]): 1.66 µM
Compound: CCCCCCOc1nsnc1C1=CCCN(C)C1 [Compound 1, xanomeline]

From PMC6044897 (ACS Omega, 2017)
